Assay results as given in PubChem BioAssay (Tox21).
This is a selection; strong and weak results do not stand in their true shares. Inconclusive results are not listed. Active and inactive are the calls of the source. Unless noted, the call rests on the fitted dose curve; in most records, active means well fitted curve in the direction sought with a large enough effect in the repeat runs; inconclusive means weak or mixed curves; inactive means no such curve, though single readings can be large; an effect the other way counts as inactive or inconclusive.

By UniProt entry, the sequences of proteins in these tests, tags left out.
UniProt P11473, whole entry: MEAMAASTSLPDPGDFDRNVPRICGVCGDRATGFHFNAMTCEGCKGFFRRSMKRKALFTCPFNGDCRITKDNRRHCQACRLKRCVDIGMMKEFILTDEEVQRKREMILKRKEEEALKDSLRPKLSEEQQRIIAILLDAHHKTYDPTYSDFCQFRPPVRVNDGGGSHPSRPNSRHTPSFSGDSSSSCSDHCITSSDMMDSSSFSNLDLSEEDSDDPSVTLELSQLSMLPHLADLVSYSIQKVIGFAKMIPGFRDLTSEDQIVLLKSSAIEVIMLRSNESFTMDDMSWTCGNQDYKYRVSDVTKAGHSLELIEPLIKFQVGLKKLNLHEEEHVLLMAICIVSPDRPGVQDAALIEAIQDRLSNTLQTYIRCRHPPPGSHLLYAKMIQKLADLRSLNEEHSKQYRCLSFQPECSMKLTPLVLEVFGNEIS
UniProt P16473, whole entry: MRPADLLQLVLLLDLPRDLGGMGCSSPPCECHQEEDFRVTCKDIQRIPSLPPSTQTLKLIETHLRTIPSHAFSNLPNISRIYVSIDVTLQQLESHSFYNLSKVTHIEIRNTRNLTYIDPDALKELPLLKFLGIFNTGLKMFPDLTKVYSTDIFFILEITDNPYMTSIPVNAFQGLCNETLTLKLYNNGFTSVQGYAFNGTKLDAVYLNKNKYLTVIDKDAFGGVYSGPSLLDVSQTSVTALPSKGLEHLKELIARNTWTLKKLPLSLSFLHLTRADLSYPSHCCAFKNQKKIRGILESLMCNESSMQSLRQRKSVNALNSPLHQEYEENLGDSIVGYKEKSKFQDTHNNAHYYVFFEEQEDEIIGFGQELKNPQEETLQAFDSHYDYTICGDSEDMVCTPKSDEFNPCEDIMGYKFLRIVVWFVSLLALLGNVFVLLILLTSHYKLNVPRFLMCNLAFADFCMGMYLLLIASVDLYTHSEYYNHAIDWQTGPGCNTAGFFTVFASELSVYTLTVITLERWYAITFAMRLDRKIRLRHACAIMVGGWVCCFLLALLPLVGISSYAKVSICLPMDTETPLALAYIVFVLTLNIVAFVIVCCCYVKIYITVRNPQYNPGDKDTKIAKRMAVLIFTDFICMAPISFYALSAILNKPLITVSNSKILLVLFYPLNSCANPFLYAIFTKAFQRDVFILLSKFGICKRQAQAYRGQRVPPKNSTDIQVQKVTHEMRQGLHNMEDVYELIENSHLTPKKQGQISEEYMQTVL
UniProt Q12809, whole entry: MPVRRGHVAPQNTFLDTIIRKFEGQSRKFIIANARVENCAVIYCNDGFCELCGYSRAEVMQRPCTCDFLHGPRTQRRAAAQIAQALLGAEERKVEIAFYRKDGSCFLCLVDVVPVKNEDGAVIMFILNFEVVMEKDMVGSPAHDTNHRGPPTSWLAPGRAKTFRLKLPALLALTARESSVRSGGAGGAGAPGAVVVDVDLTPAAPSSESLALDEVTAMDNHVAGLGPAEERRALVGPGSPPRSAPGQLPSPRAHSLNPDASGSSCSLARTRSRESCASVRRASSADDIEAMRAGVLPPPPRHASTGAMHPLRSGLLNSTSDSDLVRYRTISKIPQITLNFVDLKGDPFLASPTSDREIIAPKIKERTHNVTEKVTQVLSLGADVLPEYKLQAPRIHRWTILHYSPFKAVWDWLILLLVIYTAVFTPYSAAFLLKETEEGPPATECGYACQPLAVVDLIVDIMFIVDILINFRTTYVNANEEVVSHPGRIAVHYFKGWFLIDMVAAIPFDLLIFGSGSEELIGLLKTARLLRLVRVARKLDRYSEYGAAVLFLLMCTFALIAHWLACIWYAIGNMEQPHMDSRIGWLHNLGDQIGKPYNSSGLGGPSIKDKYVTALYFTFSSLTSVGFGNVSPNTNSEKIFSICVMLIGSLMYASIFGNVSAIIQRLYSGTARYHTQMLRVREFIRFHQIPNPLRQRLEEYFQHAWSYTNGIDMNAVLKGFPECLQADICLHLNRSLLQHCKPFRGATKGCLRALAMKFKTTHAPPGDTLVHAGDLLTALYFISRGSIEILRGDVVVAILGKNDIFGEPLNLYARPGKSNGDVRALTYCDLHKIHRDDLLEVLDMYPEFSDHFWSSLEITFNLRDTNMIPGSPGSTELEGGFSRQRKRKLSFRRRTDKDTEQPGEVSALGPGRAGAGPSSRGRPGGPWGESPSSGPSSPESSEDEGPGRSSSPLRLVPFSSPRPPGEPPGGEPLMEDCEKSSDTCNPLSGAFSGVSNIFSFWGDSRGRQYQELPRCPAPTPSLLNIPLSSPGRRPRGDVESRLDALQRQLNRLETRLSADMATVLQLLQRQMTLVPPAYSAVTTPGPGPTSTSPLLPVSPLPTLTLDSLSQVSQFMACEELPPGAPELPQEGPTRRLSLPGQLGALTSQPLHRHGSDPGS

Experiments:
[1] = qHTS assay for small molecule agonists of the p53 signaling pathway - cell viability (AID 651633; calls by dose curve; further: nearly all actives have a fitted effect of over 30% in size)
Outline: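 p53RE-bla cells, seeded at 4,000 per well and rested 5 h at 37 C/5% CO2, received compounds in DMSO for 16 h at 37 C. CellTiter-Glo was then added, and luminescence was read after 30 min at room temperature to gauge cytotoxicity.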

[2] = qHTS assay for small molecule disruptors of the mitochondrial membrane potential - cell viability (AID 720634; calls by dose curve; further: nearly all actives have a fitted effect of over 20% in size); conditions: HepG2 viability, ATP luminescence (CellTiter-Glo), 1 h
Outline: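 HepG2 cells, 2,000 per well, attached overnight, then treated 1 hr at 37 C, 5% CO2. Viability read as ATP by CellTiter-Glo luminescence after 30 min at room temperature. Read in the same wells as the m-MPI membrane-potential dye assay.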

[3] = qHTS assay for identifying genotoxic compounds that show differential cytotoxicity against isogenic chicken DT40 cell lines with known DNA damage response pathways - Rad54/Ku70 mutant cell line (AID 743015); conditions: DT40 Rad54/Ku70 mutant viability, CellTiter-Glo, 40 h; further: nearly all actives have a fitted effect of over 60% in size
[4] = qHTS assay to identify small molecule antagonists of the estrogen receptor alpha (ER-alpha) signaling pathway using the BG1 cell line - cell viability counter screen (AID 743081);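 further: compound given together with 17beta-estradiol as the ER stimulus; nearly all actives have a fitted effect of over 45% in size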
[5] = qHTS assay to identify small molecule agonists of the farnesoid-X-receptor (FXR) signaling pathway - cell viability counter screen (AID 743218); conditions: FXR-bla HEK293T viability, CellTiter-Glo luminescence, 16 h; further: nearly all actives have a fitted effect of over 45% in size
Outline: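 FXR-UAS-bla HEK 293T cells exposed to compounds for 16 h at 37C. Cytotoxicity read in the same wells by CellTiter-Glo luminescence after 30 min at room temperature, following the beta-lactamase FRET read.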

[6] = qHTS assay to identify small molecule antagonists of the farnesoid-X-receptor (FXR) signaling pathway - cell viability counter screen (AID 743221; active means well fitted cell-killing curve with a large enough effect in the repeat runs, not every such curve was filed as active; further: nearly all actives have a fitted effect of over 50% in size); conditions: FXR-bla HEK293T viability, CellTiter-Glo luminescence, 16 h
Outline: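 After a 5 h settling period, FXR-bla HEK 293T cells receive compound and chenodeoxycholic acid (50 uM final) and incubate 16 h at 37 C; CellTiter-Glo luminescence, read after 30 min at room temperature, reports cell viability.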

[7] = target: Vitamin D3 receptor (Homo sapiens) (UniProt P11473); assay: qHTS assay to identify small molecule antagonists of the vitamin D receptor (VDR) signaling pathway (AID 743223; active means well fitted inhibition curve with a large enough effect in the signal ratio in the repeat runs, not every such curve was filed as active; the % refers to the signal ratio); conditions: VDR-UAS-bla HEK293T, beta-lactamase FRET ratio, 16 h
Outline: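 Reporter line VDR-bla; stimulus 1alpha,25-(OH)2 vitamin D3, 3 nM final; compound co-addition, 16 h 37C/5% CO2; LiveBLAzer B/G substrate 2 h RT; fluorescence intensity.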

[8] = qHTS assay to identify small molecule agonists of the vitamin D receptor (VDR) signaling pathway - cell viability counter screen (AID 743224); further: nearly all actives have a fitted effect of over 50% in size
Outline: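 VDR-bla cells, 4 h after plating, exposed to compounds for 16 h at 37C; viability then read in the same wells as CellTiter-Glo luminescence after 30 min at room temperature, following the bla FRET read.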

[9] = qHTS assay to identify small molecule agonists of the NFkB signaling pathway - cell viability counter screen (AID 1159515; calls by dose curve; further: nearly all actives have a fitted effect of over 55% in size); conditions: NFkB-bla ME-180 viability, CellTiter-Glo luminescence, 5 h
Outline: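 NFkB-bla ME-180 cells, 2,000/well, plated overnight at 37 C; compound added for 5 hr at 37 C. Viability read in the same wells as the bla reporter, by CellTiter-Glo luminescence after 30 min at room temperature.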

[10] = target: Nuclear receptor ROR-gamma (Homo sapiens) (UniProt P51449); assay: qHTS assay to identify small molecule antagonists of the retinoid-related orphan receptor gamma (ROR-gamma) signaling pathway (AID 1159521; further: nearly all actives have a fitted effect of over 50% in size); conditions: Tet-on RORgamma CHO cells, RORE-luciferase, 16 h
[11] = qHTS assay to identify small molecule antagonists of the retinoid acid receptor (RAR) signaling pathway - cell viability counter screen (AID 1159551); conditions: C3RL4 cells viability, ATP luminescence (CellTiter-Glo), 6 h; further: nearly all actives have a fitted effect of over 35% in size
Outline: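 C3RL4 RARE-luciferase cells, 1,000/well, incubated overnight, then dosed with compound plus 1 uM retinol (final). After 6 hr at 37 C, viability read by CellTiter-Glo ATP luminescence following 30 min at room temperature.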

[12] = qHTS assay to identify small molecule antagonists of the retinoic acid receptor (RAR) signaling pathway (AID 1159552; further: nearly all actives have a fitted effect of over 50% in size); conditions: C3RL4 RARE luciferase reporter, retinol-stimulated, 6 h
Outline: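 C3RL4 RARE-luc cells, overnight plating; retinol 1 uM final added right after compound; 6 hr 37 C; luciferase read at 30 min RT.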

[13] = qHTS assay to identify small molecule antagonists of the estrogen related receptor (ERR) signaling pathway from Tox21 library - cell viability counter screen (AID 1224834); further: nearly all actives have a fitted effect of over 30% in size
Outline: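 ERR reporter cells, 2,000 per well, rested 6 h, then exposed to compound in DMSO for 17.5 hours at 37 C. Viability read as fluorescence after 30 min with CellTiter-Fluor.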

[14] = qHTS assay to identify small molecule antagonists of the estrogen related receptor signaling pathway with the pleiotropic PPARgamma coactivator (PGC) from Tox21 10K library - cell viability counter screen (AID 1224840; active means well fitted cell-killing curve with a large enough effect in the repeat runs, not every such curve was filed as active; further: nearly all actives have a fitted effect of over 40% in size)
Outline: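 PGC/ERR cells (2,000/well) plated 6 h, then compound-treated for 17.5 h at 37 C. Viability measured by CellTiter-Fluor fluorescence after 30 min at 37 C, multiplexed with the pathway assay.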

[15] = qHTS assay to identify small molecule agonists of the hypoxia (HIF-1) signaling pathway - cell viability counter screen (AID 1224844; calls by dose curve; further: nearly all actives have a fitted effect of over 50% in size); conditions: HRE-bla ME-180 viability, CellTiter-Glo luminescence, 17 h
Outline: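 HRE-bla ME-180 cells, 2,000/well in 0.5% dialyzed FBS medium, treated 17 h at 37C with compounds. Viability read in the same wells as the bla reporter, by CellTiter-Glo luminescence after 30 min at room temperature.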

[16] = qHTS RealTime-Glo MT Cell Viability Assay in HEK293 cells - 40 hour (AID 1224874); conditions: RealTime-Glo luminescence; further: nearly all actives have a fitted effect of over 50% in size
Outline: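 600 cells/well were plated with the nonlytic NanoLuc/prosubstrate reagent, pre-incubated 5 h, then given 23 nL of compound in DMSO. Incubation at 37 C for 40 h, with luminescence from viable-cell-reduced substrate read repeatedly from 0 h.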

[17] = qHTS assay to identify small molecule antagonists of the estrogen receptor alpha (ER-alpha) signaling pathway using the BG1 cell line in the presence of 0.1 nM 17-beta-estradiol - cell viability counter screen (AID 1259241); conditions: VM7Luc4E2 (BG1) viability, CellTiter-Fluor protease, 22 h; 0.1 nM estradiol agonist added; further: nearly all actives have a fitted effect of over 40% in size
Outline: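 Estradiol-stimulated (0.1 nM) VM7Luc4E2 cells exposed to compounds 22 hr; viability measured by fluorescence of cleaved CellTiter-Fluor substrate after 30 min.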

[18] = qHTS assay to identify small molecule HDAC inhibitors - cell viability counter screen (AID 1259365); further: nearly all actives have a fitted effect of over 50% in size
Outline: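 After overnight seeding at 1,500 cells per well, wild-type HCT-116 cultures took up compounds in DMSO for 2hr at 37 C. Viable cell content came from luminescence with CellTiter-Glo.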

[19] = qHTS assay to identify small molecule agonists of the androgen receptor (AR) signaling pathway in the presence of an antagonist - cell viability counter screen (AID 1259379); conditions: MDA-kb2 viability, CellTiter-Fluor, 16 h; further: nearly all actives have a fitted effect of over 25% in size
Outline: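 MDA-kb2 cells (MMTV-luciferase, AR/GR), 3,000/well, 5 h attachment, then 3.0 µM nilutamide (final) and compounds at 15 concentrations. Viability by CellTiter-Fluor fluorescence after 16 h at 37 °C, 0% CO2, in the reporter wells.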

[20] = qHTS assay to identify small molecule agonists of the estrogen receptor beta (ER-beta) signaling pathway - cell viability counter screen (AID 1259380); conditions: ER-beta-bla HEK293T viability, CellTiter-Glo luminescence, 16 h; further: nearly all actives have a fitted effect of over 30% in size
Outline: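 ER-beta-UAS-bla HEK293T cells in medium with 2% charcoal-stripped FBS, pre-incubated 6 hr, then treated 16 hr at 37C. Cytotoxicity read in the same wells by CellTiter-Glo luminescence after 30 min at room temperature.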

[21] = qHTS assay to identify small molecule antagonists of the estrogen receptor beta (ER-beta) signaling pathway - cell viability counter screen (AID 1259382); conditions: ER-beta-UAS-bla HEK293T viability, CellTiter-Glo luminescence, 16 h; further: nearly all actives have a fitted effect of over 55% in size
Outline: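 ER-beta-UAS-bla HEK293T cells in 2% charcoal-stripped FBS medium, treated with compound plus 1 nM 17-beta-estradiol for 16 h at 37C. Viability read by CellTiter-Glo luminescence after 30 min at room temperature in the same wells.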

[22] = target: Thyrotropin receptor (Homo sapiens) (UniProt P16473); assay: qHTS assay to identify small molecule antagonists of the thyroid stimulating hormone receptor (TSHR) signaling pathway (AID 1259385; calls by dose curve; further: nearly all actives have a fitted effect of over 20% in size); conditions: TSHR-HEK293 cAMP HTRF, TSH-stimulated antagonist mode
[23] = qHTS assay to identify small molecule antagonists of the progesterone receptor (PR) signaling pathway - cell viability counter screen (AID 1346798); further: nearly all actives have a fitted effect of over 50% in size
Outline: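 Following a 4 hr attachment, PR-UAS-bla HEK293T cells in charcoal-stripped FBS medium were exposed to compounds with R5020 for 16 hr; CellTiter-Glo was added and luminescence read after 30 min at room temperature.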

[24] = target: Voltage-gated inwardly rectifying potassium channel KCNH2 (Homo sapiens) (UniProt Q12809); assay: Human Ether-a-go-go-Related Gene (hERG) channel small molecule antagonists: fluorescence cell-based qHTS assay (AID 1671200); conditions: hERG-U2OS cells, FluxOR thallium flux fluorescence; further: nearly all actives have a fitted effect of over 50% in size
Outline: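 Kinetic two-minute fluorescence traces, sampled at 1 s, were collected following thallium stimulus of U2OS cells (1000 per well) that had been cultured overnight at 37 C and loaded with FluxOR II.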

Measured: Potency
Potency means the concentration at half of the fitted maximal effect.

O=[As]c1ccccc1 (centres undefined)
active: [1] 13.7 µM | [2] 1.22 µM | [3] 0.0969 µM | [4] 6.11 µM | [5] 0.692 µM | [6] 1.55 µM | [7] 0.245 µM | [8] 0.389 µM | [9] 13.8 µM | [10] 0.217 µM | [11] 4.33 µM | [12] 0.545 µM | [13] 1.22 µM | [14] 0.545 µM | [15] 24.5 µM | [16] 0.389 µM | [17] 6.11 µM | [18] 13.7 µM | [19] 4.33 µM | [20] 1.93 µM | [21] 2.43 µM | [22] 13.7 µM | [23] 1.93 µM | [24] 24.5 µM
